# Reference: patent US5028622A, “Administration of amino acids as treatment for neurodegenerative disorders” (Ajinomoto Company, Inc., priority 1989, dated 1991)
# Amino acid sequences for entries named in this document (tags omitted). Residues count along the entry.
# UniProt P00367, 54-558: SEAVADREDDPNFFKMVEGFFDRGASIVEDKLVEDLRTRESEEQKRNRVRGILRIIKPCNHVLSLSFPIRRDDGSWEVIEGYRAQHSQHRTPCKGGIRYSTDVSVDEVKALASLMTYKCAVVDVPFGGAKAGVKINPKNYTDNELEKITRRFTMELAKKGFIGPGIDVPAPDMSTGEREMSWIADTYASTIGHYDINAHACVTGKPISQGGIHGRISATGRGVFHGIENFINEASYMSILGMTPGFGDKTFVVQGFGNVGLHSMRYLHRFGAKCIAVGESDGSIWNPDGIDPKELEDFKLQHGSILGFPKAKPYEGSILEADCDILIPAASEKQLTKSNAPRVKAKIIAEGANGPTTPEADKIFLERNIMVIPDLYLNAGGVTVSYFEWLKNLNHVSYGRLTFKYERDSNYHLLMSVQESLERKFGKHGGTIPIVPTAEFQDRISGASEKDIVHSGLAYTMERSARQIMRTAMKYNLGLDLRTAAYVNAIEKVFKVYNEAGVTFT
# Target: T1, glutamate dehydrogenase (GDH) (Homo sapiens, UniProt P00367)
# T1 construct: GDH present in post mortem brain tissue; from tissue; host or cells: human post mortem brain: cerebellum (control and multisystem atrophy patient 1), frontal cortex (multisystem atrophy patient 2)
# Experiment: In vitro leucine activation of membrane bound GDH in post mortem brain tissue
# Format: biochemical
# Details: control cerebellum and multisystem atrophy-multineuron degeneration disease cerebellum and frontal cortex
# Text: (Table 4) Tissue preparation and GDH determinations were done according to methods previously reported. [A. D. Colon, A. Plaitakis, S. Berl, and D. D. Clark. "The purification and characterization of soluble and particulate Glutamate Dehydrogenase in Rat Brain," Neurochemistry, 1986, 46:1811-1819. The contents of this publication are herein incorporated by reference] […] FIG. 4.
compound,measurement,value
CC(C)C[C@H](N)C(=O)O [L-leucine],activation of GDH,significant activation
